This passage reports Potency results from PubChem BioAssay AID504327 (National Center for Advancing Translational Sciences (NCATS), 2011).

Sequences of proteins named here, by UniProt entry; tags and fusion partners are left off.
UniProt Q92830, whole entry, looked up: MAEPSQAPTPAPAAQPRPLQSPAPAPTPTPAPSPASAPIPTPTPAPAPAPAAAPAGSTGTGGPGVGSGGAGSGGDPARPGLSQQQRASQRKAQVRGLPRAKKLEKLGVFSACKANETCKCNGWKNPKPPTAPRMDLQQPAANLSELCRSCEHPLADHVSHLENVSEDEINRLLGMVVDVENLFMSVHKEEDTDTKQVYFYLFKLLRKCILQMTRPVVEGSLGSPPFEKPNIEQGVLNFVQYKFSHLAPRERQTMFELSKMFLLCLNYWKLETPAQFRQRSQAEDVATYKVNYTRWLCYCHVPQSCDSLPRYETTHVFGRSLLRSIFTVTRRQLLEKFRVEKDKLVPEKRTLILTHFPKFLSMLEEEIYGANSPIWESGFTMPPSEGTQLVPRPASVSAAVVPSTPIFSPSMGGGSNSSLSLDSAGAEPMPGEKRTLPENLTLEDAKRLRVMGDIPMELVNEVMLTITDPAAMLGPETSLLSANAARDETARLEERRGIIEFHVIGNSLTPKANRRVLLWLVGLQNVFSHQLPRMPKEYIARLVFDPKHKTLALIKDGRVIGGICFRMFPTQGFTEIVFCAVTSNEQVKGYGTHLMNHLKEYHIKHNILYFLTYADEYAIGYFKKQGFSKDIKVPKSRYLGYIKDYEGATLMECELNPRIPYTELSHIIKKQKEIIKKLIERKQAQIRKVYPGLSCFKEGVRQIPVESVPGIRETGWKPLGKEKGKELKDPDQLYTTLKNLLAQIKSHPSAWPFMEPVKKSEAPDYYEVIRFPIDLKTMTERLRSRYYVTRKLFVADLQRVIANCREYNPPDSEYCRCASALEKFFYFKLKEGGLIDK

This is a selection; strong and weak results do not stand in their true shares. Records with an inconclusive call do not appear. A call without a number means that no potency is given here. The source made the active and inactive calls. The call rests on the fitted dose curve; in most records, active means well fitted inhibition curve with a large enough effect; inconclusive means small, poorly fitted or top-dose-only effect, or another doubt; inactive means no such curve, though single readings can be large or run the other way.
Potency means the concentration at half of the fitted maximal effect.

The target of the experiment is Histone acetyltransferase KAT2A (Homo sapiens) (UniProt Q92830). The experiment is described as follows: qHTS Assay for Inhibitors of GCN5L2. The note with it: GCN5L2 HAT assay, ThioGlo1 CoA-SH fluorescence; series mostly up to 58.9 µM.
As for `CS(=O)(=O)c1ccc(Cl)c(NC(=O)COC(=O)C(O)(c2ccccc2)c2ccccc2)c1`, the Potency entry is “inactive”.
As for `O=[As](O)(O)c1cccnc1`, the Potency entry was “inactive”.
Regarding `COc1cc(C(=O)NCC2(N3CCOCC3)CCCCC2)cc(Cl)c1OC(C)C`, the Potency entry is “inactive”.
On to `CN(C(=O)Cc1ccc(Cl)c(Cl)c1)[C@@H]1CC[C@]2(CCCO2)C[C@H]1N1CCCC1`, for which the Potency result is “inactive”.
Then `O=C(OC1CN2CCC1CC2)c1ccc(Cl)cc1` (stereo not given), with “inactive”; and `O=[As](O)(c1cccc(O)c1)c1cccc(O)c1`, with “inactive”.
As to `CCCOP(=S)(Nc1nc(N)cc(=O)[nH]1)OCCC`, the Potency entry was “inactive”.
Then `Nc1cccc2c([As](=O)(O)O)cccc12`, with “inactive”.
`Cc1ccc(NCCc2c([N+](=O)[O-])cc([N+](=O)[O-])cc2[N+](=O)[O-])cc1`: the Potency entry was “inactive”.
For `CCOP(=O)(Nc1cccc2ccccc12)OCC`, the Potency result is “inactive”.
In the case of `COc1cc(C2NCCC3(OCCO3)C2(C)C)cc(OC)c1OC` (stereo not given), the Potency result is “inactive”.
Then `CS(=O)(=O)c1cc([N+](=O)[O-])c2no[n+]([O-])c2c1`, with active: 7.94 µM; and `O=P(Nc1nccs1)(Oc1ccccc1)Oc1ccccc1`, with “inactive”.
For the molecule `O=P(Nc1nccs1)(c1ccccc1)c1nc2ccccc2s1` (stereo not given), the Potency was active: 3.16 µM.
Then `CCOP1(=S)c2c(C)nn(CCC#N)c2N=C(c2ccccc2F)N1C` (stereo not given), with “inactive”.
Take `Nc1ccccc1[As](=O)(O)c1ccccc1`: the Potency entry was “inactive”.
As to `NC(=O)Nc1ccc([As](=O)(O)O)cc1`, the Potency result is “inactive”.
`O=[N+]([O-])c1ccc2c(c1)nnn2O`: the Potency result was “inactive”.
On to `CCOP1(=S)c2c(C)nn(CCC#N)c2N=C(c2ccc(F)cc2)N1C` (stereo not given), for which the Potency entry is “inactive”.
Regarding `CN(C(=O)Cc1ccccc1)[C@@H]1CC[C@]2(CCCO2)C[C@H]1N1CCCC1`, the Potency result was “inactive”.
In the case of `N#CCCN(C(=O)COC(=O)C(O)(c1ccccc1)c1ccccc1)c1ccc(F)cc1`, the Potency entry is “inactive”.
Consider `Cc1ccc(C(=O)OC2CN3CCC2CC3)cc1` (stereo not given), for which the Potency result is “inactive”.
Under `CC1CCC(C(C)C)C(OP(=O)(Nc2ccccn2)c2ccccc2)C1` (stereo not given) stands “inactive”; under `Cc1nn(-c2ccccc2)c2c1P(=O)(N1CCOCC1)N(C)C(c1ccccc1)=N2` (stereo not given), “inactive”; under `O=C(/C=C/c1ccccc1)OC1CN2CCC1CC2` (stereo not given), “inactive”.
Turning to `CN(C)C1(CNC(=O)c2ccc(S(C)(=O)=O)cc2)CCCCC1`, the Potency entry is “inactive”.
Turning to `O=P1(Nc2ncccn2)COc2ccccc2OC1`, the Potency result is “inactive”.
Take `O=[As](O)(c1cccs1)c1cccs1`: the Potency result is “inactive”.
As to `Cc1ccc(OCC(=O)OC2CN3CCC2CC3)cc1` (stereo not given), the Potency entry is “inactive”.
Then `NS(=O)(=O)c1cccc(NC(=O)COC(=O)C(O)(c2ccccc2)c2ccccc2)c1`, with “inactive”.
For the molecule `O=P1(Nc2ccc(Br)cn2)COc2ccccc2OC1`, the Potency result is “inactive”.
`Nc1cccc([As](=O)(O)c2ccccc2)c1`: the Potency result is “inactive”.
Then `CCOP(=O)(Nc1ccc(C)cn1)OCC`, with “inactive”; and `CN(CCCl)Cc1cc(Cl)c(NC2=NCCN2)c(Cl)c1`, with “inactive”.
Take `CCOP(=O)(NC(=NC(C)c1ccccc1)NC(C)c1ccccc1)OCC` (stereo not given): the Potency result is “inactive”.
As to `CCC1=CC2Cc3nc4ccc(Cl)cc4c(N)c3C(C1)C2` (stereo not given), the Potency entry was “inactive”.
Under `O=P1(Nc2ccccn2)COc2ccccc2OC1` stands “inactive”; under `CC(C)(C)C(=O)NC(Sc1ncccn1)C(Cl)(Cl)Cl` (stereo not given), “inactive”.
As for `Clc1n[nH]nc1-c1nn[nH][15n]1`, the Potency result is “inactive”.
As for `COc1ccccc1CNC(=O)COC(=O)C(O)(c1ccccc1)c1ccccc1`, the Potency entry is “inactive”.
Under `O=[As](O)(c1ccccc1Br)c1ccccc1Br` stands “inactive”; under `CC(C)/C=N\N=C(\N)N[N+](=O)[O-]`, “inactive”.
For `COP1(=S)c2c(C)nn(CCC#N)c2N=C(c2ccc(F)cc2)N1C` (stereo not given), the Potency result was “inactive”.
`O=C(Nc1ccncc1[N+](=O)[O-])c1ccc([N+](=O)[O-])cc1[N+](=O)[O-]`: the Potency entry is “inactive”.
In the case of `O=C(COc1ccccc1)OC1CN2CCC1CC2` (stereo not given), the Potency entry was “inactive”.
As for `CCOC(=O)c1ccc(NC(=O)C(C)(CCl)SC)cc1` (stereo not given), the Potency entry was “inactive”.
For the molecule `O=C(OC1CN2CCC1CC2)c1cccc([N+](=O)[O-])c1` (stereo not given), the Potency entry was “inactive”.
For `CCC(C)N(CC(C)C)C(=S)SC(NC(C)=O)C(Cl)(Cl)Cl` (stereo not given), the Potency entry was “inactive”.
Take `CCOC(=O)Nc1ccc([As](=O)(O)O)c(O)c1`: the Potency result is “inactive”.
Then `Cc1cc(SC(NC(=O)c2ccccc2)C(Cl)(Cl)Cl)nc(C(C)C)n1` (stereo not given), with “inactive”; and `CCCCOc1ccc(C(=O)NCC2(N3CCCCC3)CCCCC2)cc1OC`, with “inactive”; and `CCOC(=O)Nc1cccc([As](=O)(O)O)c1`, with “inactive”.
In the case of `O=[N+]([O-])c1ccc(Nc2ccc(Oc3ccc([N+](=O)[O-])cc3[N+](=O)[O-])cc2)c([N+](=O)[O-])c1`, the Potency result is “inactive”.
For the molecule `Cc1cc(SC(NC=O)C(Cl)(Cl)Cl)ncn1` (stereo not given), the Potency entry was “inactive”.
Consider `O=P(Nc1ccccn1)(c1cccc2ccccc12)c1cccc2ccccc12`, for which the Potency entry was “inactive”.
Regarding `COc1cc(C(=O)NCC2(N3CCOCC3)CCCCC2)ccc1OCC(C)C`, the Potency entry was “inactive”.
Then `O=[As](O)(c1ccc(O)cc1)c1ccccc1O`, with “inactive”.
On to `C[As](=O)(O)c1cccc(C(=O)O)c1`, for which the Potency entry was “inactive”.
In the case of `Cc1ccc2nc3c(c(C)c2c1)CC(C(Cl)Cl)S3` (stereo not given), the Potency entry is “inactive”.
Take `Cc1ccc(OP(=O)(Nc2ccc([N+](=O)[O-])cn2)Oc2ccc(C)cc2)cc1`: the Potency entry is “inactive”.
With `CC(C)c1ccc(OP(=O)(Nc2ccccn2)Oc2ccccc2F)cc1` (stereo not given), the Potency entry was “inactive”.
On to `ClCCSc1nnc(-c2cccnc2)o1`, for which the Potency entry is “inactive”.
Regarding `O=[N+]([O-])c1cc([N+](=O)[O-])c(-c2ccn[nH]2)s1`, the Potency entry was “inactive”.
For `CC(C)NC(=O)NP(=O)(Oc1ccccc1)Oc1ccccc1`, the Potency entry is “inactive”.
Turning to `CCN(CC)C(=S)SC(NC=O)C(Cl)(Cl)Cl` (stereo not given), the Potency result is “inactive”.
Then `Cc1cc(=O)[nH]c(N[N+](=O)[O-])n1`, with “inactive”; and `O=C(OC1CN2CCC1CC2)C12CC3CC(CC(C3)C1)C2` (stereo not given), with “inactive”.
In the case of `Cc1c2c(nc3ccccc13)SC(C(Cl)Cl)C2` (stereo not given), the Potency entry was “inactive”.
For the molecule `COc1cc(I)ccc1[As](=O)(O)O`, the Potency result was “inactive”.
For the molecule `COc1ccc2nc(NP(=O)(c3ccccc3)c3ccccc3)sc2c1`, the Potency entry is “inactive”.
Then `COc1ccc(N/C(=N/P(=O)(N2CCOCC2)N2CCOCC2)N2CCOCC2)cc1`, with “inactive”; and `NC(=O)c1cc([N+](=O)[O-])cc([N+](=O)[O-])c1N`, with “inactive”; and `Cc1ccc(N/C(=N/P(=O)(N2CCOCC2)N2CCOCC2)N2CCOCC2)cc1`, with “inactive”.
On to `Cc1ccc(OP(=O)(Nc2nccs2)Oc2ccc(C)cc2)cc1`, for which the Potency entry was “inactive”.
Then `COc1ccccc1OP(=O)(Nc1ccc(C)cn1)Oc1ccccc1OC`, with “inactive”.
